From patent US10676499B2, “3′ end caps, 5′ end caps and combinations thereof for therapeutic RNA” (NOVARTIS AG, priority 2014, dated 2020)

The chains behind the UniProt entries cited, without tags or fusion partners.
UniProt P06730, whole entry: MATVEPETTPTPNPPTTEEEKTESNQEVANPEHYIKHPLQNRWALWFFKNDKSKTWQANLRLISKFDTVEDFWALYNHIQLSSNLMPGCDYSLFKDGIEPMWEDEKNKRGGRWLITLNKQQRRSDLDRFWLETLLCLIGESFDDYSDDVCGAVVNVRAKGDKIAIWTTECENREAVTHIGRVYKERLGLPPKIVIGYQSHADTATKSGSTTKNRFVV

Biological target: eIF4E (Homo sapiens (Human), UniProt P06730)
Assay: TR-FRET assay for competitive binding of cap analogs to eIF4E
Conditions: N^7-alkylated GMP derivatives; competition with capped 7mGDP mRNA-biotin; single measurement unless footnoted as average

| AC50 [µM] | Structure (SMILES) |
| --- | --- |
| > 100 | Nc1nc([O-])c2c(n1)n([C@@H]1O[C@H](COP(=O)(O)O)[C@@H](O)[C@H]1O)c[n+]2CC(=O)OCc1ccccc1 |
| > 100 | Nc1nc([O-])c2c(n1)n([C@@H]1O[C@H](COP(=O)(O)O)[C@@H](O)[C@H]1O)c[n+]2CC(=O)Nc1cccc(Cl)c1 |
| > 100 | Nc1nc([O-])c2c(n1)n([C@@H]1O[C@H](COP(=O)(O)O)[C@@H](O)[C@H]1O)c[n+]2C/C=C/c1ccccc1 |
